# Source: ChEMBL document CHEMBL4177580, “New 5-HT1A, 5HT2A and 5HT2C receptor ligands containing a picolinic nucleus: Synthesis, in vitro and in vivo pharmacological evaluation” (Bioorg Med Chem, 2017)
# Sequences of proteins named here, by UniProt entry; tags and fusion partners are left off.
# UniProt P14842, whole entry: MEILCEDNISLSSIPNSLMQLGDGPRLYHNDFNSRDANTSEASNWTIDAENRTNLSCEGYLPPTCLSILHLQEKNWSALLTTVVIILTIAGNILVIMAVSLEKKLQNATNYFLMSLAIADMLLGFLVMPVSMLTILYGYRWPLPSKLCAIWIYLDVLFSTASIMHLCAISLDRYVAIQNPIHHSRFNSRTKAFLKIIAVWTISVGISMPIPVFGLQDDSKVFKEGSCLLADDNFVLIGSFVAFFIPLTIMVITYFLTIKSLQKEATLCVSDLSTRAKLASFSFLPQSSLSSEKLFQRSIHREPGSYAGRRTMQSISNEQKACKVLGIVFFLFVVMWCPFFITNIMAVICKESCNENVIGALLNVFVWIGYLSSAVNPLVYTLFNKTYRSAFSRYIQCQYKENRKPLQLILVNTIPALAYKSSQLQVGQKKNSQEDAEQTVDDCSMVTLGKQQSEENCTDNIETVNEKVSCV
# Calls of active or inactive are those of the source. The calls are words filed in the database; no cut-off is given here.
# Tests used:
# [1] = molecular target: 5-hydroxytryptamine receptor 2A (Rattus norvegicus) (UniProt P14842); test: Antagonist activity at 5-HT2A receptor in Sprague-Dawley rat ielum assessed as reduction in 5-HT-evoked contraction relative to control; type: functional
# [2] = molecular target: 5-hydroxytryptamine receptor 2A (Rattus norvegicus) (UniProt P14842); test: Agonist activity at 5-HT2A receptor in Sprague-Dawley rat ileum assessed as induction of contraction; type: functional
Emax [1],Activity [2],SMILES
inactive,inactive,COc1ccc(N2CCN(CCNC(=O)c3ccccn3)CC2)cc1
inactive,inactive,O=C(NCCN1CCN(c2ccccc2)CC1)c1ccccn1
